# Ab-14 light chain CDR variants: yeast mating affinities

Binding partner: SARS-CoV-2 spike HR2 peptide, sequence PDVDLGDISGINAS.

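These sequences belong to a second round, designed from the earlier measurements on random variants of the parent. Their group label is 14L_GP_HC (GP: Gaussian process model; HC: hill climbing; a sequence that several methods proposed may carry one label only). AlphaSeq pools MATa yeast showing the antibodies with MATalpha yeast showing the peptide. The frequency of each diploid, read from paired DNA barcodes, reflects how well the two displayed proteins bind. A regression on co-assayed BCL2-family reference pairs converts the normalised counts of each replicate to an apparent Kd. The assay was run in six technical replicates.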

Each scFv is VH, a (GGGGS)3 linker, VL, as in the parent Ab-14, and differs from it in the CDRs of the light chain only.
VH: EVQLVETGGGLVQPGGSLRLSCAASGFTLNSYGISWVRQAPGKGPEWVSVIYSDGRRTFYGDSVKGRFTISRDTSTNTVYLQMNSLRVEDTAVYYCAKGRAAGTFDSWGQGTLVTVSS
VL: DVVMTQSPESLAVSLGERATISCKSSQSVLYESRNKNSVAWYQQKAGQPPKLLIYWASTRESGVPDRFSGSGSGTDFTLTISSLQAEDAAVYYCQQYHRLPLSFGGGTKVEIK

Changes read parent residue, position, new residue, counted from the first residue of the VL shown. Scale: log10 of Kd in nM, estimated from mating counts; low values are strong binders. A mean of the replicates is given; it leaves out those without a signal. An entry "n.d." has no value in the source: the pair was not observed among the diploids in that replicate. This suggests poor binding but is not conclusive. Background: pairings of all light chain designs with three empty control strains gave a value in 4% of cases (median 2.64, 5th percentile 1.59). Values in that range, when seen in few replicates, are hard to tell from nonspecific mating. The control count says in how many pairings with the empty strains this scFv gave a signal, with their mean in brackets.

| # | changes | log10 Kd, replicates | mean log10 Kd (nM) | control signals |
|---|---|---|---|---|
| 1 | K24F+S26L+Y31P+K36F+W56H+S62D | 0.27 / 0.55 / -0.03 / -0.08 / -0.17 / 0.11 | 0.11 | 0 of 18 |
| 2 | S25L+S26R+V29T+K36P+W56H | 0.31 / 0.38 / 0.08 / 0.06 / 0.25 / 0.11 | 0.20 | 2 of 18 (2.22) |
| 3 | S28E+V29W+W56H+S62Q | 0.12 / -0.04 / -0.11 / 0.07 / 0.10 / 0.18 | 0.05 | 0 of 18 |
| 4 | S25F+N35A+S38G+W56N | -0.19 / 0.13 / 0.53 / 0.13 / 0.25 / -0.25 | 0.10 | 0 of 18 |
| 5 | V29Y+R34G+W56H+E61M | 0.83 / 1.06 / 0.82 / 0.77 / 0.64 / 1.20 | 0.89 | 0 of 18 |
| 6 | S26E+S28G+W56G+S103H | 0.22 / 0.39 / 0.28 / 0.04 / 0.40 / 0.62 | 0.32 | 1 of 18 (2.07) |
| 7 | Q27E+V29G+N35M+W56E | -0.05 / -0.13 / -0.19 / -0.14 / -0.13 / 0.10 | -0.09 | 1 of 18 (3.06) |
| 8 | S25L+S26R+V29T+L30R+W56N+E61L | 0.61 / 0.71 / 0.16 / 0.35 / 0.47 / 0.55 | 0.47 | 0 of 18 |
| 9 | Q27I+V29G+K36E+W56E+S62Q | 0.72 / 0.51 / 0.83 / 0.44 / 1.05 / 0.60 | 0.69 | 0 of 18 |
| 10 | S25V+S26L+E32G+N35D+W56H+S62D | 0.27 / 0.41 / 0.20 / 0.21 / 0.42 / 0.43 | 0.33 | 1 of 18 (2.33) |
| 11 | S25L+S26R+V29T+L30K+K36Q+W56A | 0.23 / 0.18 / 0.27 / 0.03 / 0.32 / 0.19 | 0.20 | 2 of 18 (4.04) |
| 12 | S25I+S26G+S28G+W56G+S103H | n.d. / n.d. / n.d. / n.d. / n.d. / n.d. | n.d. | 0 of 18 |
| 13 | S25I+Y31F+W56D+T59F | 0.30 / 0.00 / 0.16 / -0.08 / -0.16 / 0.14 | 0.06 | 2 of 18 (2.28) |
| 14 | S25F+N35T+W56N+S62T+S103W | 0.41 / 0.17 / 0.31 / 0.31 / 0.33 / 0.39 | 0.32 | 0 of 18 |
| 15 | K24H+S25V+Q27T+S38N+W56N | -0.40 / -0.33 / -0.45 / -0.38 / -0.54 / -0.35 | -0.41 | 3 of 18 (2.42) |
| 16 | K24F+K36F+W56H+S62D | 0.50 / 0.27 / 0.41 / 0.43 / 0.63 / 0.38 | 0.44 | 1 of 18 (1.78) |
| 17 | S26E+Q27W+R34N+W56H+S62D | 0.67 / 1.17 / 0.95 / 1.04 / 0.72 / 1.40 | 0.99 | 0 of 18 |
| 18 | Q27I+V29W+W56A | 0.24 / 0.50 / 0.34 / -0.06 / 0.24 / 0.49 | 0.29 | 0 of 18 |
| 19 | S25A+E32S+R34V+W56D | 0.08 / -0.04 / -0.07 / -0.04 / 0.05 / 0.30 | 0.04 | 0 of 18 |
| 20 | V29W+W56E+S62V | -0.27 / -0.21 / -0.42 / -0.52 / -0.53 / -0.27 | -0.37 | 0 of 18 |
| 21 | S25V+Q27F+V29Y+Y31L+W56E+S58Q | 0.63 / 0.54 / 0.36 / 0.19 / 0.48 / 0.53 | 0.45 | 0 of 18 |
| 22 | S25L+S26P+V29T+N35Q+W56N | 0.38 / 0.12 / -0.09 / 0.19 / -0.10 / 0.16 | 0.11 | 2 of 18 (2.56) |
| 23 | Q27I+R34M+W56E+E61M | 0.22 / -0.10 / -0.15 / 0.04 / 0.04 / 0.16 | 0.03 | 2 of 18 (2.40) |
| 24 | Q27K+L30P+Y31F+W56N | n.d. / n.d. / n.d. / n.d. / n.d. / n.d. | n.d. | 0 of 18 |
| 25 | S25F+S26Y+W56H+S62D | 0.55 / 0.74 / 0.60 / 0.17 / 0.25 / 0.57 | 0.48 | 0 of 18 |
| 26 | S25V+V29W+Y31M+W56E+E61N | -0.12 / -0.38 / -0.26 / -0.44 / -0.36 / -0.21 | -0.30 | 0 of 18 |
| 27 | K24H+Q27P+L30Q+W56D+S62E+Q96D | -0.11 / -0.11 / -0.25 / -0.35 / -0.16 / -0.12 | -0.18 | 0 of 18 |
| 28 | S26L+L30Q+W56N+S62D | 0.41 / 0.45 / 0.22 / 0.20 / 0.26 / 0.47 | 0.34 | 2 of 18 (2.29) |
| 29 | S25L+S26R+V29T+W56N+E61C | -0.23 / -0.35 / -0.32 / -0.29 / -0.62 / -0.07 | -0.31 | 1 of 18 (2.39) |
| 30 | S25L+S26Q+L30N+W56N | 0.57 / -0.38 / 0.20 / 0.03 / -0.21 / 0.48 | 0.11 | 0 of 18 |
| 31 | K24H+Q27M+L30A+W56N | 0.35 / 0.64 / 0.29 / 0.37 / 0.33 / 0.48 | 0.41 | 0 of 18 |
| 32 | S25H+L30K+Y31F+W56D | -0.23 / -0.04 / -0.11 / -0.26 / -0.32 / 0.05 | -0.15 | 3 of 18 (3.28) |
| 33 | S25C+S26L+N35D+W56H+S62D | 0.35 / 0.23 / 0.25 / 0.06 / 0.10 / 0.26 | 0.21 | 0 of 18 |
| 34 | V29Y+R34V+W56H | 0.41 / 0.33 / 0.43 / 0.22 / 0.03 / 0.57 | 0.33 | 1 of 18 (2.11) |
| 35 | V29D+R34V+W56H | 0.50 / -0.18 / -0.13 / 0.07 / -0.23 / -0.27 | -0.04 | 0 of 18 |

Values of this round are not directly comparable with the first-round values of the same sequences. The authors averaged sequences with at least three values out of six and counted those with two or fewer as poor binders.

Values reported by Li et al. 2023, doi:10.1038/s41467-023-39022-2 (FLAb copy).